For the assay, the system named is membranes of the Her-2/neu negative cell line HTB132. The assay can be described thus: ELISA of antibody binding to membranes of the Her-2/neu negative cell line HTB132. The protocol:
The wells of a 96-well ELISA plate (Nunc) were coated with membrane fractions of the Her-2/neu overexpressing cell line SKBR3 and as a control for non-specific antibody bonds with membrane fractions of the Her-2/neu negative cell line HTB 132 in PBS overnight.
The next day, non-specific binding sites were blocked by 3 percent BSA in PBS. Herceptin as well as herceptin after preincubation with relevant and irrelevant phage mimotopes or by mimotopes on KLH as well as on KLH alone were applied to the coated, blocked ELISA plate in a repeated test. […] HRP enters into a color reaction with the substrate. The result of this color reaction can be quantified by photometer. The absorption coefficient of 450/630 nm (OD) is determined.
A general note: An ELISA detects its analyte on a solid surface through an enzyme-linked reagent.

Consider 1 substance from US7166694B2, “Vaccine against cancerous diseases which is based on mimotopes of antigens expressed on tumor cells” (priority 2000, dated 2007).

For the substance “Herceptin: humanized monoclonal antibody obtained from mice, effective against the antigen HER-2/neu, from Genentech Inc.”, the “reaction on membranes of the Her-2/neu negative cell line HTB132” value is “no reaction”.
